Reference: US20250250357A1

Experiments:
[1] = target: monkey MSLN full-length protein expressed on HEK293T cells (HEK293T-monkey MSLN) (monkey); experiment: FACS on HEK293T-monkey MSLN cells
[2] = target: monkey MSLN full-length protein (NCBI: XP_028696439.1) on HEK293T cells (monkey); experiment: FACS on HEK293T-monkey MSLN cells; antibody 0.0064 nM
[3] = target: monkey MSLN full-length protein (NCBI: XP_028696439.1) on HEK293T cells (monkey); experiment: FACS on HEK293T-monkey MSLN cells; antibody 20 nM
[4] = target: monkey MSLN full-length protein (NCBI: XP_028696439.1) on HEK293T cells (monkey); experiment: FACS on HEK293T-monkey MSLN cells; antibody 100 nM
[5] = target: monkey MSLN full-length protein (NCBI: XP_028696439.1) on HEK293T cells (monkey); experiment: FACS on HEK293T-monkey MSLN cells; antibody 0.8 nM
[6] = target: monkey MSLN full-length protein (NCBI: XP_028696439.1) on HEK293T cells (monkey); experiment: FACS on HEK293T-monkey MSLN cells; antibody 4 nM
[7] = target: monkey MSLN full-length protein (NCBI: XP_028696439.1) on HEK293T cells (monkey); experiment: FACS on HEK293T-monkey MSLN cells; antibody […]
[8] = target: monkey MSLN full-length protein (NCBI: XP_028696439.1) on HEK293T cells (monkey); experiment: FACS on HEK293T-monkey MSLN cells; antibody 0.00128 nM
[9] = target: monkey MSLN full-length protein (NCBI: XP_028696439.1) on HEK293T cells (monkey); experiment: FACS on HEK293T-monkey MSLN cells; antibody 0.032 nM

- EC50 [1]: 1 nM
- Maximum mean fluorescence intensity [1]: 39200
- FACS fluorescence intensity [2]: 115
- FACS fluorescence intensity [3]: 3650
- FACS fluorescence intensity [4]: 3720
- FACS fluorescence intensity [5]: 1680
- FACS fluorescence intensity [6]: 3610
- FACS fluorescence intensity [7]: 503
- FACS fluorescence intensity [8]: 98
- FACS fluorescence intensity [9]: 192
Substance: Tab142 (Amatuximab) (antibody)
